In the test the target is Complex of Baculoviral IAP repeat-containing protein 7 [1-159,S150G] and E3 ubiquitin-protein ligase XIAP [336-348] (Homo sapiens, UniProt Q96CA5, S150G). As to the kind of experiment: ASSAY_NAME: Fluorescence Polarization Affinity Measurements. DESCRIPTION: Samples for fluorescence polarization affinity measurements were prepared by addition of serial dilutions of target protein to each well containing antagonist and polarization probe in the buffer. Samples were read after 30-min incubation. Fluorescence polarization values were plotted as a function of the antagonist …. Background: Polarisation of emitted light reports the rotation of a fluorescent probe.

By UniProt entry, the sequences of proteins in these tests, tags left out. Chains listed by the source or under a name are the forms on record and can include a tag or linker.
UniProt Q96CA5, as listed by the source S150G: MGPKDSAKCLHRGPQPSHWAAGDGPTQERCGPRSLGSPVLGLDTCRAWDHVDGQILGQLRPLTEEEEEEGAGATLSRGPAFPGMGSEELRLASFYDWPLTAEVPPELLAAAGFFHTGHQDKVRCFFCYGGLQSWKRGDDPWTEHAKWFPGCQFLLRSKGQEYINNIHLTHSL

The structures appear in SMILES notation. pKi: −log10 of the molar value.

As for `CCC(C)[C@H](NC(=O)CN1CCCC[C@H](NC(=O)[C@H](C)N)C1=O)C(=O)N[C@@H](C)C(=O)N[C@@H](CCC(N)=O)C(=O)N[C@@H](CCCCN)C(=O)N[C@@H](CO)C(=O)N[C@@H](CCC(=O)O)C(=O)O` (stereo partly drawn) [(2S)-2-[(2S)-2-[(2S)-6-amino-2-[(2S)-2-[(2S)-2-[(2S,3S)-2-{1-[(3S)-3-[(2S)-2-aminopropanamido]-2-oxoazepan-1-yl]acetamido}-3-methylpentanamido]propanamido]pentanediamido]hexanamido]-3-hydroxypropanamido]pentanedioic acid], the pKi (usually the negative decadic logarithm of the Ki, by convention in mol/L) is 4.82. As for `CC[C@H](C)[C@H](NC(=O)[C@@H]1CCCN1C(=O)[C@@H](NC(=O)[C@H](C)N)C(C)C)C(=O)N[C@@H](C)C(=O)N[C@@H](CCC(N)=O)C(=O)N[C@@H](CCCCN)C(=O)N[C@@H](CO)C(=O)N[C@@H](CCC(=O)O)C(=O)O` [(2S)-2-[(2S)-2-[(2S)-6-amino-2-[(2S)-2-[(2S)-2-[(2S,3S)-2-{[(2S)-1-[(2S)-2-[(2S)-2-aminopropanamido]-3-methylbutanoyl]pyrrolidin-2-yl]formamido}-3-methylpentanamido]propanamido]pentanediamido]hexanamido]-3-hydroxypropanamido]pentanedioic acid], the pKi was 6.30.

Source of the values: BindingDB's records for doi:10.1021/cb600276q (Genentech, 2006).
